Values of other authors in PMC7566471, “A new perspective on the interaction between the Vg/VGLL1-3 proteins and the TEAD transcription factors” (Scientific Reports, 2020).

Amino acid sequences for entries named in this document (tags omitted). Residues count along the entry.
UniProt Q15561, whole entry: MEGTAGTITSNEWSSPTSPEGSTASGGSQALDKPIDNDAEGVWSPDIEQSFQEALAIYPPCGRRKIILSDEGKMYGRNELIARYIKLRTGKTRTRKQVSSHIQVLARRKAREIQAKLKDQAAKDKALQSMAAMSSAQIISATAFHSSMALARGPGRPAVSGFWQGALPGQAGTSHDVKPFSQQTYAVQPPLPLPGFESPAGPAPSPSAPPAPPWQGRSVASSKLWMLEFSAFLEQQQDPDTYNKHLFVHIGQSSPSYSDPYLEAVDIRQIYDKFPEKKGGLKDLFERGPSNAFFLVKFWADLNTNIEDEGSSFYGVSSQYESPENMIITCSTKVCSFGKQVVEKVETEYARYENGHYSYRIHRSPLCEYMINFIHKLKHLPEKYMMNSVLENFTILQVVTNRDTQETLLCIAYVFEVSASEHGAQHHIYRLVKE
UniProt P46937, 50-99: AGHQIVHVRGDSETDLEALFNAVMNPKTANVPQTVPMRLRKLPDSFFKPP

Biological target: TEAD4 (Homo sapiens) (UniProt Q15561)
Settings: cited from earlier work

Question: For YAP 50-99 (from UniProt P46937), which Kd is on record?
Answer: Its Kd is 11 nM.
